The results in this text go back to PubChem BioAssay AID2549 (National Center for Advancing Translational Sciences (NCATS), 2010).

The chains behind the UniProt entries cited, without tags or fusion partners.
UniProt P46063, whole entry: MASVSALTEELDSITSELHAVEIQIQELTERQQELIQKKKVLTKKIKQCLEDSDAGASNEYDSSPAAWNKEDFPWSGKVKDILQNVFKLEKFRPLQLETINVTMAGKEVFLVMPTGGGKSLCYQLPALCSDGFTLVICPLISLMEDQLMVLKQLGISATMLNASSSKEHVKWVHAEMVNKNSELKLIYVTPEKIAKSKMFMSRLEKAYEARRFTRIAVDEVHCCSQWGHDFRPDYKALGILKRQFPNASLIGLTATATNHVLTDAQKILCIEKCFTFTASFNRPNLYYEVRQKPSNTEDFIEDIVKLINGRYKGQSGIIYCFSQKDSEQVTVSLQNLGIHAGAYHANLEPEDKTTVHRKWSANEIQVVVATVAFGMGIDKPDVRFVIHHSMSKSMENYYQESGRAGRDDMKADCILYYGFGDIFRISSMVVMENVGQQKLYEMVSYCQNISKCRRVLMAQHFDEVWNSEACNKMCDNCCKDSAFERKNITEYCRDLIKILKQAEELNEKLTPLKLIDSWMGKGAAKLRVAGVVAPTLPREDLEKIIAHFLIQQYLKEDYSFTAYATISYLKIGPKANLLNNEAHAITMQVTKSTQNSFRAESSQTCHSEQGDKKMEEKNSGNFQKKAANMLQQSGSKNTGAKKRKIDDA

This is a selection; strong and weak results do not stand in their true shares. The source made the active and inactive calls. Calls come from the whole dose curve; as a rule, active = well fitted inhibition curve with a large enough effect; inconclusive = small, poorly fitted or top-dose-only effect; inactive = flat fitted curve, though single readings scatter.

The experiment concerns the target ATP-dependent DNA helicase Q1 (Homo sapiens) (UniProt P46063). In words: qHTS Assay for Inhibitors of RecQ-Like Dna Helicase 1 (RECQ1).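 For activity, negative = inhibition: plate controls were vehicle for no effect and no enzyme for full effect.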 Note: nearly all actives have a fitted effect of over 30% in size. The note with it: RECQ1 DNA unwinding, red fluorescence kinetic read; activity, negative = inhibition: at 57.3 µM (top of the series) unless noted. The source says:
Survival of cells and the faithful propagation of the genome depend on elaborate mechanisms of detecting and repairing DNA damage. Treatment of advanced cancer relies on radiation therapy or chemotherapy, which kill cancer cells by causing extensive DNA damage. It is often found, that cancer cells develop resistance to therapy through enhanced activity of DNA repair functions; this has led to an increased interest in developing drugs that interfere with DNA repair, which could sensitize cancer cells to conventional therapy.
This validation qHTS assay pertains to human RECQ1, which is important in resolving abnormal DNA structures formed during replication or homologous recombination. Shutting down the expression of RECQ1 leads to chromosomal instability and higher radiation sensitivity in cultured cells.
The validation assay was a fluorescence quenching based kinetic qHTS for RECQ1 Helicase DNA unwinding. The activity was measured as ATP-dependent separation of a 20-bp DNA duplex extended by 30-nt single-stranded tails (forked duplex). The forked DNA substrate was tagged with rhodamine fluorophore (carboxytetramethyl rhodamine, TAMRA) and BHQ-2 (Black Hole Quencher 2) dark quencher. Strand separation results in an increase in the fluorescence of TAMRA (excitation 525 nm, emission 598 nm). This substrate construct operates in a red-shifted region where very few compound library members have been noted to fluoresce (PubChem AIDs 593 and 594). An additional feature of the assay is the inclusion of 2.5 ug/ml poly (dIdC), to reduce interference by compounds such as DNA intercalators, a major source of false inhibitors.
Opher Gileadi, Structural Genomics Consortium, University of Oxford
Screening Center PI: Austin, C.P.
Screening Center: NIH Chemical Genomics Center [NCGC]
Three uL of reaction buffer (25 mM Tris-HCl (pH 8.0), 5 mM NaCl, 2 mM MgCl2, 1mM DTT, 0.01% Tween- 20, and 2.5 ug/ml poly(dI-dC), including enzyme (50 nM RECQ1T1), were dispensed into a 1536-well Greiner black assay plate via solenoid-valve based nanoliter dispensers. Compounds (23 nl each in columns 5-48) and control (23 nl each in column 2 as dose-response) were transferred via a Kalypsys pintool equipped with a 1536-pin array. The plates were incubated for 15 min at room temperature, and then 1 ul of substrates (200 nM DNA and 2 mM ATP, final concentrations) was added to start the reaction. The plate was transferred into a ViewLux high-throughput CCD imager where the reaction progress was measured in a discontinuous kinetic mode (two reads spaced 2 hours apart, with intermediate room temperature incubation of the covered assay plate) by using standard red-fluorescence optics (excitation filter 525 nm, emission filter 598 nm). Enzyme-free and vehicle (DMSO) controls were included for signal normalization.
Take `Cc1cc(C)cc(OP(C)(N)=O)c1` (configuration not stated): the activity, negative = inhibition is inactive: -2.13%. In the case of `COc1ccccc1OP(C)(=O)Nc1cc(Cl)ccc1C` (configuration not stated), the activity, negative = inhibition is inactive: -7.45%. Take `COc1ccc(OP(C)(=O)Nc2cccc(F)c2)cc1` (configuration not stated): the activity, negative = inhibition is inactive: -7.9%. `COc1ccccc1OP(C)(=O)Nc1ccc(C)cc1` (configuration not stated): the activity, negative = inhibition is inactive: 7.37%.

As for `Cc1ccc(NP(C)(=O)Oc2ccccc2)c(C)c1` (configuration not stated), the activity, negative = inhibition was inactive: -9.6%. With `CCOC(=O)c1ccc(NP(C)(=O)Oc2ccccc2)cc1` (configuration not stated), the activity, negative = inhibition entry was “inactive”. In the case of `O=[N+]([O-])c1ccc2c(c1)C=Nc1ccccc1O2`, the activity, negative = inhibition result is “inactive”. Take `CC(C)(C)c1ccc(OP(C)(=O)Nc2ccc(SC(F)(F)F)cc2)cc1` (configuration not stated): the activity, negative = inhibition is inactive: -6.35%.

With `Cc1cccc(C)c1OP(C)(N)=O` (configuration not stated), the activity, negative = inhibition was inactive: -0.405%. On to `O=C(O)C(O)(c1ccccc1)c1ccccc1`, for which the activity, negative = inhibition is inactive: -11.4%.

With `O=C(O)C1(O)c2ccccc2-c2ccccc21`, the activity, negative = inhibition is inactive: -0.324%. Turning to `O=[N+]([O-])[O-].[NH4+]`, the activity, negative = inhibition was inactive: -10.6%. The same measure for `CCN(CC)CCCOC(=O)C(O)(c1ccccc1)c1ccccc1`: inactive: -2.76%; for `CP(=O)(Nc1ccccn1)Oc1ccc(Cl)cc1` (configuration not stated): inactive: -2.61%; for `CCOC(=O)c1ccc(NP(C)(=O)Oc2ccc(OC)cc2)cc1` (configuration not stated): inactive: -8.09%.

As for `CCOP(C)(=S)SCC(=O)NC(C)C(=O)O` (configuration not stated), the activity, negative = inhibition was inactive: 16.8%. With `CP(=O)(NC(=O)Nc1ccccc1)Oc1ccccc1` (configuration not stated), the activity, negative = inhibition is inactive: -1.01%. As for `CCc1ccc(OP(C)(=O)N2CCN(c3ccc([N+](=O)[O-])cc3)CC2)cc1` (configuration not stated), the activity, negative = inhibition is inactive: -5.94%. In the case of `Cc1cc(C)cc(OP(C)(=O)Nc2ccc(SC(F)(F)F)cc2)c1` (configuration not stated), the activity, negative = inhibition result is “inactive”. Turning to `Cc1cccc(C)c1OP(C)(=O)Nc1ccc(SC(F)(F)F)cc1` (configuration not stated), the activity, negative = inhibition was inactive: -4.05%. As for `CP(=O)(Nc1ccc(SC(F)(F)F)cc1)Oc1ccc(Cl)cc1` (configuration not stated), the activity, negative = inhibition was inactive: -3.84%.

Take `CP(=O)(Oc1ccccc1)OC(c1ccccc1)C(F)(F)F` (configuration not stated): the activity, negative = inhibition entry was “inactive”. For the compound `CP(=O)(Nc1ccccc1Br)Oc1ccccc1` (configuration not stated), the activity, negative = inhibition was inactive: -5.98%. With `COc1ccccc1OP(C)(=O)Nc1ccccc1` (configuration not stated), the activity, negative = inhibition is inactive: -2.92%. For `CP(=S)(Nn1cnnc1)Oc1ccccc1` (configuration not stated), the activity, negative = inhibition was inactive: -13.8%.

For `CCCOc1ccc(NP(C)(=O)Oc2ccc(Cl)cc2)cc1` (configuration not stated), the activity, negative = inhibition is inactive: -6.67%. The same measure for `CP(=O)(Nc1ccc(SC(F)(F)F)cc1)Oc1ccccc1` (configuration not stated): “inactive”; for `COc1ccccc1OP(C)(=O)Nc1c(C)cccc1C` (configuration not stated): inactive: -10%; for `CN1CCCCC1COC(=O)C1(O)c2ccccc2CCc2ccccc21` (configuration not stated): inactive: -2.99%.

For the compound `O=[N+]([O-])c1cc([N+](=O)[O-])c(Nc2nnnn2CCO)c([N+](=O)[O-])c1`, the activity, negative = inhibition result was “inactive”. Under `Cc1nc2ccc3ccccc3c2s1.O=[N+]([O-])c1cc([N+](=O)[O-])c(O)c([N+](=O)[O-])c1` stands “inactive”. For the compound `CC(C)N(CCCl)C(C)C`, the activity, negative = inhibition is inactive: 0.128%.

Consider `O=[N+]([O-])c1cc([N+](=O)[O-])c(-n2nnc3ccccc32)c([N+](=O)[O-])c1`, for which the activity, negative = inhibition was inactive: -2.56%. Turning to `Cc1ccc(C)c(NP(C)(=O)Oc2ccccc2)c1` (configuration not stated), the activity, negative = inhibition is inactive: -12.7%. As to `Cc1cc(C)cc(OP(C)(=O)Nc2ccccn2)c1` (configuration not stated), the activity, negative = inhibition was inactive: -12.3%.

Consider `CP(=O)(Nc1cccc(Br)c1)Oc1ccccc1` (configuration not stated), for which the activity, negative = inhibition is inactive: 27.7%. With `CCOC(=O)c1ccc(NP(C)(=O)Oc2cc(C)cc(C)c2)cc1` (configuration not stated), the activity, negative = inhibition is inactive: -0.255%. Regarding `Cc1cc(C)cc(OP(C)(=O)Nc2ccc(C)cc2C)c1` (configuration not stated), the activity, negative = inhibition is inactive: 3.06%. `COc1ccccc1OP(C)(=O)Nc1cccc(Br)c1` (configuration not stated): the activity, negative = inhibition entry was “inactive”.

For `CC1=NCCc2c1[nH]c1ccccc21.O=[N+]([O-])c1cc([N+](=O)[O-])c(O)c([N+](=O)[O-])c1`, the activity, negative = inhibition is inactive: -0.806%. For `O=[N+]([O-])OCC(CO[N+](=O)[O-])(CO[N+](=O)[O-])CO[N+](=O)[O-]`, the activity, negative = inhibition entry is “inactive”. For the compound `Cc1ccc([N+](=O)[O-])cc1[N+](=O)[O-]`, the activity, negative = inhibition is inactive: -2.36%. Regarding `O=[N+]([O-])c1cccc([N+](=O)[O-])c1`, the activity, negative = inhibition was inactive: -3.2%. With `CP(=O)(Nc1ccccc1)Oc1ccc(F)cc1` (configuration not stated), the activity, negative = inhibition was inactive: -4.14%. Under `CCCCCOc1ccc(NP(C)(=O)Oc2ccc(Cl)cc2Cl)cc1` (configuration not stated) stands inactive: -10.7%. With `CCN(CC)CCCOC(=O)C(O)(c1ccccc1)C1CCCCC1` (configuration not stated), the activity, negative = inhibition is inactive: -6.14%. Take `CCOC(=O)c1ccc(NP(C)(=O)Oc2ccc(F)cc2)cc1` (configuration not stated): the activity, negative = inhibition is inactive: 6.58%.
